Measurements published in patent US6525059B1, “Substituted pyrazoles as p38 kinase inhibitors” (G. D. Searle & Company, priority 1998, dated 2003).

System: TNF-α
Assay: Rat assay: LPS-challenged rats, serum TNF-α by ELISA
Format: in vivo
Conditions: Table 9, dose 20 mg/kg

CC1CCCCN1CCCNc1cc(-c2c[nH]nc2-c2ccc(F)cc2)ccn1 (stereo not shown)
Rat LPS Assay % Inhibition: 56 (20) %
